Test results: PMC9562916, “Investigation of the Phenolic Component Bioavailability Using the In Vitro Digestion/Caco-2 Cell Model, as well as the Antioxidant Activity in Chinese Red Wine” (Foods, 2022)
Marks after values point to notes of the source that are not given here.

Test system: Caco-2 cell monolayer
Experiment: Caco-2 transepithelial transport assay of digested red wine
Format: in vitro ADME, human
Experimental: Caco-2 cells were inoculated following the method of Hubatsch et al. […] Briefly, a 5% v/v of CO2 incubator at 37 °C was used to house the cells. […] Caco-2 cells were sub-cultured when they reached 80-90% of the adherent growth by treating them with a 0.05% v/v of trypsin-EDTA solution. The culture between passages 35 and 40 was used for the following experiment. Transport experiments were performed according to the method of Wu et al. with slight modifications. First, 1.0 × 10^5 Caco-2 cells were inoculated onto 12 mm transparent cell culture plates (Transwell). Media were carefully injected into the apical (0.5 mL) and basolateral (1.5 mL) sides of the Transwell plates. The cell culture medium had to be replaced every other day until the cells formed a monolayer. The integrity and transport ability of the Caco-2 cell monolayer were evaluated by measuring the trans-epithelial electrical resistance (TEER) with a MilliCell voltammeter (Millicell ERS-2, Merck Millipore, Billerica, MA, USA). […] When the cell activity exceeded 0.9, a transport experiment was conducted. The apical side was injected with a digested red wine sample (0.5 mL) and was thoroughly mixed with […] Balanced Salt Solution (HBSS) buffer solution. […] The cells were then cultured in a 37 °C, 5% CO2 incubator. Then, 0.25 mL samples were separately taken from the basolateral side of the monolayer. An equal volume of HBSS buffer was then added every half hour from the beginning of the culture until the end of the culture at 6 h. The collected samples were subsequently filtered and placed in the sample bottle for further HPLC analysis. This experiment was repeated several times to collect enough samples for the next antioxidant test. […] PCs were determined according to their retention times, UV/VIS spectra, and high-resolution MS spectra, in addition to a comparison with the standards. […] PCs All of the samples were determined in triplicate.

For O.Oc1cc(O)c2c(c1)O[C@H](c1ccc(O)c(O)c1)[C@@H](O)C2 [Catechin], the “PC Contents, Cabernet, Transmembrane” value was 3.16 ± 0.15 ^a mg/L, the “PC Contents, Helanshan, Transmembrane” value was 1.90 ± 0.07 ^a mg/L and the “PC Contents, Tianzhu, Transmembrane” value was 3.33 ± 0.15 ^a mg/L.
